Measurements from US20080070237A1, “Npas3 Mutant Mice and Uses for Screening and Testing Therapies for Schizophrenia and Related Neurological Disorders” (priority 2003, published 2008).

Assays:
Npas3−/− mice = settings: mouse, in vivo
Description: (§1) Locomotor Activity Tests. For all locomotor experiments, activity is measured in a 41×41×30 cm Omnitech Digiscan activity monitor equipped with 16 pairs of photodetector-LED beams along the x and y axis. (Accuscan Electronics, Columbus, Ohio). […] After the acclimation period, Baseline Locomoter Activity Test results are recorded for each test mouse. Subsequently, locomotor activity is tested following pharmacological challenges of three neurotransmitter pathways involved in schizophrenia and other neurological disorders. The pathways and the drugs used to challenge each include:
(§2) a. Methamphetamine (a dopamine pathway agonist) 1.0 mg/kg in the form of D-methamphetamine-HCL (Sigma; St. Louis, Mo.). Methamphetamine is a strong dopamine agonist that will activate D1 and D2 receptor signaling.
(§3) b. Haloperidol (a dopamine pathway antagonist) 0.3 mg/kg or 1.0 mg/kg (Tocris; Ellisville, Mo.).
(§4) The test drug is 0.3 mg/kg clozapine (Sigma; St. Louis, Mo.). An atypical neuroleptic agent, clozapine, which has a high affinity for serotonin 5-HT2 and 5-HT6 receptors, is administered to determine the involvement of serotonergic pathways. Although clozapine can also antagonize both D1 and D2-like receptors, ten times higher concentrations are necessary to inhibit dopamine-dependent hyperactivity
(§5) The test drugs are 1.0 mg/kg MK-801 or 0.3 mg/kg MK-801 (ICN Biomedicals Inc.; Aurora, Ohio). MK-801 is a noncompetitive NMDA receptor antagonist.
(§6) Each drug is administered in a subcutaneous injection volume of 5 mL/kg body weight. Post-challenge activity is measured for three hours. Horizontal activity counts (scored by visual observance or breaking a light beam) and total distance are recorded during the pre- and post-challenge periods at 3-minute intervals with VersaMax software. All Locomoter Activity Tests are performed on mice at 7-9 weeks of age, with n=12. All values are expressed as mean±SEM. Statistical analyses are performed using appropriate analysis of variance (ANOVA) followed by adapted post hoc comparisons.

Npas3+/+ control mice = settings: mouse, in vivo
Description: as §1, §2, §3, §4, §5, §6

With `CCCN1CCC[C@@H]2Cc3n[nH]cc3C[C@H]21` [quinpirole, Quinpirole] the “horizontal locomotor activity after drug challenge” value (Npas3−/− mice) was “inhibition is only transient”, the “time until mice resume locomotor activity after initial inhibition” value (Npas3−/− mice; sc, 1 mg/kg) was no more than 15 min and the “horizontal locomotor activity after drug challenge” value (Npas3+/+ control mice) was “inhibits the locomotor activity”.
